Source: ChEMBL document CHEMBL3576802, “Discovery of a β-Hairpin Octapeptide, c[Pro-Arg-Phe-Phe-Dap-Ala-Phe-DPro], Mimetic of Agouti-Related Protein(87-132) [AGRP(87-132)] with Equipotent Mouse Melanocortin-4 Receptor (mMC4R) Antagonist Pharmacology” (J Med Chem, 2015)

Protein sequences, listed by entry. Tags and fused reporters are not part of them. Lines headed by an entry give the natural chain unless they say otherwise; changes in a name come on top.
UniProt P33033: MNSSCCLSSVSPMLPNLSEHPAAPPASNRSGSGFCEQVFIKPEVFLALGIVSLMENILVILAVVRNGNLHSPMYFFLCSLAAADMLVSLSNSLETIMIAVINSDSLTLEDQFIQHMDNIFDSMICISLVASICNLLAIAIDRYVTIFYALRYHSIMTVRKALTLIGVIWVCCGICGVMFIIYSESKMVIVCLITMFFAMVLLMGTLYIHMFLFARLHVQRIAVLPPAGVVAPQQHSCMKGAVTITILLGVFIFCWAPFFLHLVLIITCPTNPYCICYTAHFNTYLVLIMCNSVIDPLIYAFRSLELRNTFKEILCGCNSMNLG

Target: Melanocortin receptor 3 (Mus musculus, UniProt P33033)
Assay: Displacement of MTII from mouse MC3R expressed in HEK293 cells
Type: cell-based

C[C@@H]1NC(=O)[C@H](CC(N)=O)NC(=O)[C@H](Cc2ccccc2)NC(=O)C(Cc2cccc3ccccc23)NC(=O)[C@H](CCCNC(=N)N)NC(=O)[C@@H]2CCCN2C(=O)[C@H]2CCCN2C(=O)[C@H](Cc2ccccc2)NC1=O (stereo partly specified)
Ki: 790 nM
